Measurements: publication PMC10459755, “Production in Bacteria and Characterization of Engineered Humanized Fab Fragment against the Nodal Protein” (Pharmaceuticals, 2023)

Protein sequences, listed by entry. Tags and fused reporters are not part of them. Residues count along the entry.
UniProt Q96S42, 238-347: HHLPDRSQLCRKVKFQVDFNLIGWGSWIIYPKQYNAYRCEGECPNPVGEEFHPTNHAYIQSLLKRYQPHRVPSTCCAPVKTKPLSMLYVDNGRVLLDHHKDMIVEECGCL

Target: T1, human recombinant Nodal (rhNodal) (Homo sapiens, UniProt Q96S42)
T1 construct: Nodal, human, recombinant; also called Nodal recombinant protein; recombinant protein Nodal; source: bought: R&D Systems (code 3218-ND/CF)
Experiment: BLI; rhNodal immobilised at 10 μg/mL in 10 mM NaAc pH 4.5 on AR2G sensors; rhFab_3D1 at 6.25-100 nM in PBS with 0.02% Tween20, 0.1% BSA, 0.05% sodium azide; 25 °C; 1:1 Langmuir model, one fit for each concentration; apparent KDs; final KD averaged from 25, 50 and 100 nM
Settings: both partners purified

Kd: 7.8 nM
B1: recombinant humanized Fab of the 3D1 anti-Nodal antibody (rhFab_3D1) (Fab, V domains shown)
VH: EVQLVESGGGLVQPGGSLRLSCAASGFTFRNYWMSWVRQAPGKGLEWVAEIRLKSDNYAARYAESVKGRFTISRDTSKNTAYLQMNSLRAEDTAVYYCSGIRRFAYWGQGTLVTVSS
VL: DIQMTQSPSSLSASVGDRVTITCKSSQSLLNSGNQKNYLTWYQQKPGKAPKLLIYWASTRESGVPSRFSGSRSGTDFTLTISSLQPEDFATYYCQNDYSYPLTFGQGTKVEIK
